In patent publication US20220305115A1 (JANSSEN SCIENCES IRELAND UNLIMITED COMPANY, priority 2019, published 2022) one finds AC50 data, which are given here for one compound.

The structures appear in SMILES notation.

What all share (format): cell-based
The test system of one assay is TNFα. Put plainly: PBMC cytokine profiling assay, TNFα induction. Conditions: Homo sapiens, 24 h, read-out: TNFα AC50. As for the experimental part: (§1) Compounds were dissolved and stored in DMSO (Sigma-Aldrich, St. Louis, Mo.) at 10 mM concentration.
(§2) Cryopreserved human PBMCs isolated from healthy donors were purchased from StemCell Technologies (Vancouver, Canada). Cell culture medium used was RPMI with L-Glutamine (Mediatech, Manassas, Va.) supplemented with 10% fetal bovine serum (Hyclone, GE Healthcare, Logan, Utah) and Penicillin-Streptomycin (Mediatech). Human TNFα, IL12p40, and IFNα2a 384-well Assay capture plates, standards, buffers and processing reagents were obtained from MesoScale Discovery Technologies (MSD; Rockville, Md.).
(§3) Cryopreserved human PBMCs (1×10e8 cells/ml) were thawed at 37° C. and resuspended in 25 mL warm cell culture medium. The cells were pelleted at 200×g (Beckman Avanti J-E) for 5 min and resuspended in 20 mL of fresh culture media. Cells were counted using a Cellometer (Nexcelcom Bioscience), adjusted to 2×10e6 cells, and incubated for 2 hours in an incubator set at 37° C., 5% CO2 to recover from cryopreservation. […]
(§4) Using a Biomek FX 384 well pipetting station (Beckman), conditioned culture medium (CCM) from the assay plate was transferred to MSD capture plates customized for each cytokine. […] MSD Read Buffer diluted to 2× in deionized water and 35 μL/well was added via Biomek FX instrument. The plates were read immediately in a MSD6000 reader. […]

A further assay has as its system IL12p40. Put plainly: PBMC cytokine profiling assay, IL12-p40 induction. Conditions: Homo sapiens, 24 h, read-out: IL12p40 AC50. As for the experimental part: as §1, §2, §3, §4
In a further assay the test system is IFNα. Put plainly: PBMC cytokine profiling assay, IFNα induction. Conditions: Homo sapiens, 24 h, read-out: IFNα AC50. On the procedure: as §1, §2, §3, §4

Take `CCCC[C@](C)(CO)Nc1nc(N)nc2cc(Cl)cnc12` [Compound 114, (R)-2-((2-amino-7-chloropyrido[3,2-d]pyrimidin-4-yl)amino)-2-methylhexan-1-ol]: the AC50 in the assay with TNFα was 340 nM; in the assay on IL12p40, 200 nM; in the assay with IFNα, 34100 nM.
